In DBAASP one finds MIC data, which are given here for four compounds.

What is called MIC is the least concentration at which growth counts as inhibited. A low value points to greater potency.

Some test systems named below: Bacillus subtilis; Candida albicans; Cryptococcus neoformans; Escherichia coli; Pseudomonas putida; Saccharomyces cerevisiae; Salmonella typhimurium; Serratia marcescens; Staphylococcus aureus; Streptococcus mutans; Streptococcus pneumoniae.
Holding throughout (experiment): ≥ marks a high value that may be exact or a test limit, other limits are often not marked, values filed in µg/mL are converted to µM
Assay [1] has as its system Erwinia amylovora PMV 6076.
Assay [2] relates to Pseudomonas syringae pv. syringae EPS 94.
In assay [3] the test system is Xanthomonas campestris pv. Vesicatoria 2133-2.

Structures are written as SMILES. ≈ marks a conversion by molar mass, not a printed value. Some results are limits rather than exact numbers.

On to `CC[C@H](C)[C@H](NC(=O)CNC(=O)[C@H](C)NC(=O)[C@@H]1CCCN1C(=O)CNC(=O)[C@H](C)NC(=O)[C@H](CC(C)C)NC(=O)[C@H](Cc1ccc(O)cc1)NC(=O)[C@H](CCCCN)NC(=O)[C@H](CC(C)C)NC(=O)[C@@H](NC(=O)[C@H](CCCCN)NC(=O)[C@H](CCCCN)NC(=O)[C@H](Cc1ccccc1)NC(=O)[C@H](CC(C)C)NC(=O)[C@H](CCCCN)NC(=O)[C@H](CCCCN)NC(=O)CN)[C@@H](C)CC)C(=O)NCC(=O)N[C@@H](CCCCN)C(=O)N[C@@H](Cc1ccccc1)C(=O)N[C@@H](CC(C)C)C(=O)N[C@@H](Cc1cnc[nH]1)C(=O)N[C@@H](CO)C(=O)N[C@@H](C)C(=O)N[C@@H](CCCCN)C(=O)O` [GKKLFKKILKYLAGPAGIGKFLHSAK], for which the MIC was 1.77 µM (≈ 4.98 µg/mL) in assay [1] and 3.54 µM (≈ 9.95 µg/mL) in assay [2].
As to `CC[C@H](C)[C@H](NC(=O)[C@H](CCC(N)=O)NC(=O)[C@@H](NC(=O)[C@H](C)NC(=O)[C@H](CCC(N)=O)NC(=O)CNC(=O)[C@@H](NC(=O)[C@@H](NC(=O)[C@H](C)NC(=O)[C@@H](NC(=O)[C@H](C)NC(=O)[C@H](CC(C)C)NC(=O)[C@H](Cc1ccc(O)cc1)NC(=O)[C@H](CCCCN)NC(=O)[C@H](CC(C)C)NC(=O)[C@@H](NC(=O)[C@H](CCCCN)NC(=O)[C@H](CCCCN)NC(=O)[C@H](Cc1ccccc1)NC(=O)[C@H](CC(C)C)NC(=O)[C@H](CCCCN)NC(=O)[C@@H](N)CCCCN)[C@@H](C)CC)C(C)C)C(C)C)C(C)C)[C@@H](C)O)C(=O)N[C@@H](C)C(=O)N[C@@H](CCCCN)C(=O)N[C@@H](CCCCN)C(=O)N[C@@H](CC(=O)O)C(=O)N[C@@H](CCC(=O)O)C(=O)N[C@@H](CC(C)C)C(=O)O` [KKLFKKILKYLAVAVVGQATQIAKKDEL], the MIC was 3.54 µM (≈ 11.1 µg/mL) in assay [1], 1.77 µM (≈ 5.56 µg/mL) in assay [2] and 3.54 µM (≈ 11.1 µg/mL) in assay [3].
With `CC(C)C[C@H](NC(=O)[C@H](CC(C)C)NC(=O)[C@H](CCCN=C(N)N)NC(=O)[C@H](Cc1cnc[nH]1)NC(=O)[C@@H](NC(=O)[C@H](CCCN=C(N)N)NC(=O)CNC(=O)[C@@H](NC(=O)[C@@H]1CCCN1C(=O)[C@H](Cc1ccccc1)NC(=O)[C@H](CCC(N)=O)NC(=O)[C@@H](N)CC(C)C)C(C)C)C(C)C)C(=O)N[C@@H](CCCN=C(N)N)C(=O)N[C@@H](CCCCN)C(=O)O` [LQFPVGRVHRLLRK], the MIC in the assay with Bacillus subtilis is 4.65 µM (≈ 8 µg/mL); against Candida albicans it was 18.6 µM (≈ 32 µg/mL); against Cryptococcus neoformans it was at least 37.2 µM; against Escherichia coli, 4.65 µM (≈ 8 µg/mL); in the assay on Pseudomonas putida, 9.31 µM (≈ 16 µg/mL); against Saccharomyces cerevisiae it was 18.6 µM (≈ 32 µg/mL). Also, the MIC in the assay on Salmonella typhimurium was 2.33 µM (≈ 4 µg/mL); against Serratia marcescens, 4.65 µM (≈ 8 µg/mL); against Staphylococcus aureus, 9.31 µM (≈ 16 µg/mL); against Streptococcus mutans it was 4.65 µM (≈ 8 µg/mL); in the assay with Streptococcus pneumoniae, 9.31 µM (≈ 16 µg/mL).
Turning to `CC[C@H](C)[C@H](NC(=O)CNC(=O)[C@H](C)NC(=O)[C@@H]1CCCN1C(=O)CNC(=O)[C@H](C)NC(=O)[C@H](CC(C)C)NC(=O)[C@H](Cc1ccc(O)cc1)NC(=O)[C@H](CCCCN)NC(=O)[C@H](CC(C)C)NC(=O)[C@@H](NC(=O)[C@H](CCCCN)NC(=O)[C@H](CCCCN)NC(=O)[C@H](Cc1ccccc1)NC(=O)[C@H](CC(C)C)NC(=O)[C@H](CCCCN)NC(=O)[C@H](CCCCN)NC(=O)[C@@H](N)CO)[C@@H](C)CC)C(=O)NCC(=O)N[C@@H](CCCCN)C(=O)N[C@@H](Cc1ccccc1)C(=O)N[C@@H](CC(C)C)C(=O)N[C@@H](Cc1cnc[nH]1)C(=O)N[C@@H](CO)C(=O)N[C@@H](C)C(=O)N[C@@H](CCCCN)C(=O)O` [SKKLFKKILKYLAGPAGIGKFLHSAK], the MIC is 1.77 µM (≈ 5.03 µg/mL) in assay [1] and 3.54 µM (≈ 10.1 µg/mL) in assay [2].
